Reference: patent publication US9526740B2, “Prochelators as broad-spectrum antimicrobial agents and methods of use” (Duke University, priority 2013, dated 2016)

Test system: murine macrophage-like J774A.1 cells
Experiment: Viability of macrophage-like cells (CellTiter-Glo)
Settings: 100 μM with supplemental Cu; 12 h

SMILES: CC1(C)C2CC3OB(c4cccc5cccnc45)O[C@]3(C)C1C2 (stereo in doubt) [QBP, quinoline boronic ester]
- Viability of J774.1 cells at highest dose with Cu: loss of viability
